According to PubChem BioAssay AID1063 (University of Pittsburgh Molecular Library Screening Center, 2008):
The entries are a selection whose mix differs from that of the whole data set. Some results for these compounds are left out of this collection, so the calls shown say nothing about other tests. The source made the active and inactive calls. Cut-off read from the data, not from the text of the source: active = inhibition above about 50%; inactive = the rest.

Assay: Leishmania major promastigote growth inhibition, primary screen (AID 1063);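 note: promastigotes grown with compound for 44 hours at 28 °C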
Settings: Leishmania major promastigotes, resazurin fluorescence viability; at 10 µM; active compounds read high

Row | SMILES | inhibition
1 | CN(C)C1CCCC1OC(=O)C(O)(c1ccccc1)c1ccccc1 (centres undefined) | inactive: -5.45%
2 | Cc1ccccc1C(=O)NCC1(N2CCCCC2)CCCCC1 | inactive: 3.66%
3 | C=CCN1CCN(CCOC(=O)C(O)(c2ccccc2)c2ccccc2)CC1 | inactive: -3.84%
4 | CCN1CCCC(OC(=O)C2(O)c3ccccc3C=Cc3ccccc32)C1 (centres undefined) | inactive: 7.62%
5 | O=C(NCC1(N2CCCCC2)CCCCC1)c1cc([N+](=O)[O-])ccc1Cl | inactive: 22.3%
6 | CC(C)N1C(=O)CC2(CCN(CCOC(=O)C(O)(c3ccccc3)c3ccccc3)CC2)C1=O | inactive: -4.79%
7 | O=C(OC1CN2CCC1CC2)C(CO)(c1ccccc1)c1ccccc1 (centres undefined) | inactive: 3.7%
8 | CN(C)c1cccc(C(=O)NCC2(N(C)C)CCCCC2)c1 | inactive: -0.31%
9 | COc1cccc(C(=O)NCC2(N3CCCCC3)CCCCC2)c1 | inactive: -0.43%
